## AlphaSeq binding of Ab-14 heavy chain variants to a spike HR2 peptide

Binding partner: SARS-CoV-2 spike HR2 peptide, sequence PDVDLGDISGINAS.

Each scFv is VH, the linker GGGGSGGGGSGGGGS, VL, as in the parent Ab-14, and differs from it in the CDRs of the heavy chain only.
VH: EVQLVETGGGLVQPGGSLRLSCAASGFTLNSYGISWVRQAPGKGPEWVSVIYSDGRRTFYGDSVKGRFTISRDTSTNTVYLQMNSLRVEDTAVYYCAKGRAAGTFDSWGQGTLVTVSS
VL: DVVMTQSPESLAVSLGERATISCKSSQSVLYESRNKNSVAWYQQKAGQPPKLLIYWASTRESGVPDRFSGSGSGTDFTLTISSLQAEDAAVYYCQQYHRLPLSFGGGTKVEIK

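AAYL49 was designed without a model: most single CDR substitutions and a random sample of double and triple ones. Affinity was read by AlphaSeq, a pooled yeast mating assay with surface-displayed partners. The frequency of each diploid, read from paired DNA barcodes, reflects how well the two displayed proteins bind. Scores were corrected for input abundance and mapped to Kd with protein pairs of known affinity run in the same pool. Each pool was mated in three replicate cultures.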

Each variant is given by its three heavy chain CDRs, as the data file delimits them; those of the parent are GFTLNSYGIS, VIYSDGRRTFYGDSVK, GRAAGTFDS.
Numbers give log10(Kd / nM), so 0 is 1 nM and 3 is 1 µM. Smaller is tighter.
"ND" marks a missing value. The strain was present, yet no cells mated with the target were sequenced in that replicate, which points to weak or no binding.
Background: pairings of library AAYL49 with three empty control strains gave a value in 15% of cases (median 4.06, 5th percentile 2.83). Values in that range, when seen in few replicates, are hard to tell from nonspecific mating. Also given: how often the same scFv was detected with the empty control strains, with their mean in brackets.

CDR-H1	CDR-H2	CDR-H3	log10 Kd, replicates	control signals
GFVLNSYGIS	DIYSDGRRTFYGDSVK	GRAADTFDS	ND ND ND	0 of 9
GFTLNSYGIS	VIYSDQRRTFYGDSVK	GRANGTQDS	ND ND 4.14	2 of 9 (3.94)
GFTLNSYGVS	VIYSVGRRTFYGDSVK	GRTAGTFDS	ND ND 4.52	1 of 9 (3.27)
GFTLNSYGIS	VIYSDGRRTFYGDSVK	YRAAKSFDS	0.65 0.69 0.73	1 of 9 (4.09)
GFTLPSYGIS	VIYSDGRRYIYGDSVK	GRAAGTFDS	ND 3.41 5.06	1 of 9 (4.23)
GFTANSYGIL	VIYSDGRRTFYGDSVK	CRAAGTFDS	ND ND ND	0 of 9
QFTLNSYGIS	VQYSDGRRTFYGDSVP	GRAAGTFDS	ND 3.45 ND	3 of 9 (3.58)
GFTLNSYGIS	VIYSVGRRTFWGDSVK	GPAAGTFDS	ND ND 4.46	2 of 9 (3.74)
GFTLNSYGKS	VIYSDGRWTFYGVSVK	GRAAGTFDS	ND ND ND	0 of 9
GFTLNSYGIS	VIYSDGRHTFSGDSVK	GRHAGTFDS	ND ND ND	0 of 9
GFTLNSYGIS	VIYSDYRRTFYGDSVK	GRAQVTFDS	5.40 2.82 ND	0 of 9
GFTLNSYGIK	VIYSDGRRTFYPDSVK	GRAAGTFDR	ND ND ND	0 of 9
GFTLNSGGMS	VIYSDGRRTFYGDSVK	GRAAGYFDS	ND 4.22 ND	2 of 9 (3.87)
GFPLNSYGIS	VRYSDGRRTCYGDSVK	GRAAGTFDS	ND ND ND	1 of 9 (3.38)
GSTLNSYGIS	VIYSDGRRTFYGDFVK	GRWAGTFDS	ND 2.59 4.19	0 of 9
GFTLNSYGIS	KIYSDGRRTFYGDSVK	GRAAGTGFS	ND ND 4.59	0 of 9
GFTLNSYGIS	VIYSDGRRHFYGDSVK	GRAYGTFDS	1.45 1.52 ND	0 of 9
GFTLNSYGIS	VIYSDGERTFYGDSVK	GRAAGCFDS	2.00 1.79 1.70	1 of 9 (5.13)
GFRLNSYGIS	DEYSDGRRTFYGDSVK	GRAAGTFDS	5.11 4.28 ND	6 of 9 (3.93)
GFDLNSYGIS	VIDSDGRRTFYGDRVK	GRAAGTFDS	ND 3.87 ND	4 of 9 (4.08)
GFTLNSYGIS	VIYSDGRRTDYGDSKK	GRAKGTFDS	4.18 ND ND	0 of 9
GFTLNSYGYS	VIDSDGDRTFYGDSVK	GRAAGTFDS	ND ND ND	0 of 9
GFTLNSYGIS	VIYSDGHRTFYGDAVK	ARAAGTFDS	ND ND ND	0 of 9
GFTLHSYGIS	VIYSDGRRTFYGDSVA	GEAAGTFDS	0.80 1.05 0.94	0 of 9
GFTLRSYGIS	VIYSDGRRTFYGDNVK	GRAAGTFTS	2.28 1.40 1.84	0 of 9
GFTLNSYGKS	VIYWDGRRTFYGDSVK	GRAAITFDS	ND 3.03 ND	1 of 9 (4.81)
GFTLNSYGIS	VIYSDGARTFAGDSVK	GRAAGTSDS	ND ND ND	4 of 9 (4.45)
GFTLNEYGIS	VIYSDGRRCFYGDSVK	GRVAGTFDS	3.21 3.10 3.18	5 of 9 (4.08)
GFTYNSYGIS	VWYSDGRRTFNGDSVK	GRAAGTFDS	ND ND ND	0 of 9
GFTLNSYGIS	GIYSDGRRTFVGDSVK	GRSAGTFDS	ND ND ND	3 of 9 (3.66)
GFTLNSYGIS	VIYSDGRRTFYGDSVK	GRARGTCGS	ND 4.01 ND	5 of 9 (3.69)
GFTLNSYGIS	SIYSDGRRTFYGYSVK	GFAAGTFDS	5.14 ND 4.76	4 of 9 (3.99)
GFTLNSYGIS	SIYSDGRITFYGDSVK	GRAAGTFDS	3.87 4.35 4.38	4 of 9 (3.99)
GFTLNSYTIS	VIYSDGRRTFYGDSVK	GRAWGTFDM	ND ND ND	0 of 9
GGTLNSYGIS	VIYSDGRRTFYVDSVK	GNAAGTFDS	ND 1.97 ND	0 of 9
GFTRNSYGIS	VIYSDGRREFYGDSVA	GRAAGTFDS	ND 3.17 ND	1 of 9 (5.15)
GFSLNSYGIT	VIYSDMRRTFYGDSVK	GRAAGTFDS	ND ND ND	0 of 9
GFTLMSHGIS	EIYSDGRRTFYGDSVK	GRAAGTFDS	ND ND ND	0 of 9
GFTLRSYGIS	WIYVDGRRTFYGDSVK	GRAAGTFDS	ND 2.93 ND	1 of 9 (3.74)
GFTLNSYCIS	VPYSDGRDTFYGDSVK	GRAAGTFDS	ND ND ND	5 of 9 (4.03)
GFTLNSYGIS	VIYSDSWRTFYGDSVK	VRAAGTFDS	ND ND ND	1 of 9 (3.84)
GFFLNSYGIS	VIYSDGRRYFYGDSVK	GRPAGTFDS	ND ND ND	0 of 9
GFTLNSYGIS	VIYSKGRRTFYDDSVK	GRAKGTFDS	ND ND ND	0 of 9
GFTLNSYGIS	SIYSDTRRTFYGDSVK	GRAAGTFDS	ND ND ND	1 of 9 (2.63)
VFTLNSYGIS	VIYSDGRRTFYGDSVK	SRAAFTFDS	ND ND ND	0 of 9
GFTLNSYGIS	VIYSDGRFLFYGDSVK	GRAEGTFDS	ND ND ND	0 of 9
GFTLPSYGGS	VIYSDGRRTTYGDSVK	GRAAGTFDS	ND ND ND	1 of 9 (2.46)
IFTLNSYGRL	VIYSDGRRTFYGDSVK	GRAAGTFDS	ND ND ND	0 of 9
GFTLNSYCIS	VIYSDGRRTFKGDSVF	GRAAGTFDS	ND ND ND	1 of 9 (3.45)
GFTLHYYGIS	VIYSDGRRTFYIDSVK	GRAAGTFDS	ND 3.09 ND	0 of 9
GFTLNSYGIS	VIYSDGRRTFYGDSVK	GRLAGTFDS	1.37 1.46 1.33	1 of 9 (5.45)
GFTLNSYGIS	VIYSDGRRTFYGLSVK	GNFAGTFDS	3.55 4.04 5.97	5 of 9 (4.44)

Excerpt, the final 5 entries:

CDR-H1	CDR-H2	CDR-H3	log10 Kd, replicates	control signals
IFTLNSYGRL	VIYSDGRRTFYGDSVK	GRAAGTFDS	ND ND ND	0 of 9
GFTLNSYCIS	VIYSDGRRTFKGDSVF	GRAAGTFDS	ND ND ND	1 of 9 (3.45)
GFTLHYYGIS	VIYSDGRRTFYIDSVK	GRAAGTFDS	ND 3.09 ND	0 of 9
GFTLNSYGIS	VIYSDGRRTFYGDSVK	GRLAGTFDS	1.37 1.46 1.33	1 of 9 (5.45)
GFTLNSYGIS	VIYSDGRRTFYGLSVK	GNFAGTFDS	3.55 4.04 5.97	5 of 9 (4.44)

Source: Engelhart et al. 2022 (doi:10.1038/s41597-022-01779-4), MIT Lincoln Laboratory and A-Alpha Bio; data file from the FLAb repository.